For 4 compounds, outcome and AC50 results are on record in PubChem BioAssay (EPA / NIEHS).

The chains behind the UniProt entries cited, without tags or fusion partners. Where a name states a change or a piece, a line headed by the entry shows the natural chain unless it says otherwise.
UniProt Q98867: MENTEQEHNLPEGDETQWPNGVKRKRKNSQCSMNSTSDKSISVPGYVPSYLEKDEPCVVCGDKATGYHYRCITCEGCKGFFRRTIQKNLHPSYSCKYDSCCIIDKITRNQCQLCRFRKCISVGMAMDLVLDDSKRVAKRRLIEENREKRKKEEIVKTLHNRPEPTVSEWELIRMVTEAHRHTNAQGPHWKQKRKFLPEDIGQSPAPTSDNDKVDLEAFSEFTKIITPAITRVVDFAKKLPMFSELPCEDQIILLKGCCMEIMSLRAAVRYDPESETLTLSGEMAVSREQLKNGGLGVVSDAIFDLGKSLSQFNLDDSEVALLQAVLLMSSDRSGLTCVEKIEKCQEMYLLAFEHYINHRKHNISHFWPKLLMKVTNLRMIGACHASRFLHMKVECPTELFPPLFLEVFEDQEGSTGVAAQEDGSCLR
UniProt P10827: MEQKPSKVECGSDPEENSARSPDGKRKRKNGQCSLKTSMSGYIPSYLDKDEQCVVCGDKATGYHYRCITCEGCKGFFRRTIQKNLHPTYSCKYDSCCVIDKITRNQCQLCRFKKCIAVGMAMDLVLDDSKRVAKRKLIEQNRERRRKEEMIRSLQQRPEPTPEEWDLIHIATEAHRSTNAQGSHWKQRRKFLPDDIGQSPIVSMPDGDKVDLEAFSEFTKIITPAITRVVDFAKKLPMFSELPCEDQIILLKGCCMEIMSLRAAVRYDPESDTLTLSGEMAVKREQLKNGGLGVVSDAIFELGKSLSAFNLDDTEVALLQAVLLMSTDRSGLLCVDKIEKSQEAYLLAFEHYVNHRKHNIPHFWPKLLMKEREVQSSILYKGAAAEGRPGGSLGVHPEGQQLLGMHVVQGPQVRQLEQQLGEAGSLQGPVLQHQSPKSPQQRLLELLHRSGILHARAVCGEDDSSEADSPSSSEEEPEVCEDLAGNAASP
UniProt P15204: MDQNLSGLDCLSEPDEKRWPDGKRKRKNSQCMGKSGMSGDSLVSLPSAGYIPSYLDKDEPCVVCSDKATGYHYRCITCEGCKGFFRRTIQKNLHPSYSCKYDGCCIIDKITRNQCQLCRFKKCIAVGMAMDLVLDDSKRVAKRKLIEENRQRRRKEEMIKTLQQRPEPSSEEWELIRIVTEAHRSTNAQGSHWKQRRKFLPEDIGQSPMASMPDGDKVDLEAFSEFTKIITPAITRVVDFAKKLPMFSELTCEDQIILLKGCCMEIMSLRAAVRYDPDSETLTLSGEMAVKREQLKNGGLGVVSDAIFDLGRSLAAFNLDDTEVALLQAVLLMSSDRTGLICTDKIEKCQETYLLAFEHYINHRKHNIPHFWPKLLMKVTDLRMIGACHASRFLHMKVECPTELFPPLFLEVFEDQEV
UniProt P10828: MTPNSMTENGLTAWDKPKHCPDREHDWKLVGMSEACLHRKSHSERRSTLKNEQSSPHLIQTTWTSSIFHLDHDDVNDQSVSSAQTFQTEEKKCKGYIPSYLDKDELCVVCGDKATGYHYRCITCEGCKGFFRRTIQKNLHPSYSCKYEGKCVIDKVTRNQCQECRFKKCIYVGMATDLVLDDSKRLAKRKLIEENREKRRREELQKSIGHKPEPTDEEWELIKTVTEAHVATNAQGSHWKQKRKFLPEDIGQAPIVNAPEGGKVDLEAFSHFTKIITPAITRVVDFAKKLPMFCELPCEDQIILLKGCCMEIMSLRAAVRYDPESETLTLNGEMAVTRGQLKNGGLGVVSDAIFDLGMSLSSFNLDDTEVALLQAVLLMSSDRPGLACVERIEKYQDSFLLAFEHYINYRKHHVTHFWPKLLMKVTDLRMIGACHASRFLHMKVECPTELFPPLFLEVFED

Experiment [1] relates to Sodium/Iodide Symporter (NIS), SLC5A5 (gene 6528). Briefly: CPHEA_Stoker_NIS_Inhibition_RAIU: CPHEA's Radioactive Iodide Uptake (RAIU) Assay for Sodium/Iodide Symporter (NIS) Inhibition, Stoker and Laws Labs (AID 2283841). In a few lines: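 Iodide uptake through human NIS is measured in an engineered HEK293T line. Cells take up 125I (329pM final) for 2 hours at room temperature alongside chemicals at 0.001–100uM. Retained radioactivity is counted, and the signal is expressed against DMSO controls.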

Experiment [2] in a line: CPHEA_Stoker_NIS_Cytotoxicity: Cytotoxicity Assessment for CPHEA's Radioactive Iodide Uptake (RAIU) Assay for Sodium/Iodide Symporter (NIS) Inhibition, Stoker and Laws Labs (AID 2283897). Put shortly:
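ATP luminescence (Cell Titer Glo) measured viability, with loss of signal normalized to DMSO controls. Cells: hNIS-HEK293T-EPA, seeded 40 hours prior. Dosing: 0.001–100uM, 2 hours, room temperature, uptake buffer pH 7.4.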

Experiment [3] concerns the target Nuclear receptor subfamily 1 group I member 2 (Mus musculus) (UniProt O54915). In words: ATG_mPXR_XSP2: Attagene TRANS-FACTORIAL Multi-Species (XSP1) HepG2 Assay for mouse Pregnane X Receptor (PXR) (AID 2283831). Put shortly: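 Human liver HepG2 cells expressing exogenous receptor-GAL4 chimeras were exposed to test chemicals for 24 h. Induction of reporter mRNA was scored as gain of fluorescence signal over DMSO controls.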

Experiment [4] deals with zebrafish Thyroid Hormone Receptor alpha (TRa), thraa (gene 30670) (UniProt Q98867). In words: ATG_zfTRa_XSP2: Attagene TRANS-FACTORIAL Multi-Species (XSP1) HepG2 Assay for zebrafish Thyroid Hormone Receptor alpha (TRa) (AID 2283832).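 Also: actives raise zebrafish TRa-Gal4 reporter transcript above DMSO baseline.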 In a few lines: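 HepG2 cells transiently transfected with multiplexed GAL4-UAS reporter units expressing chimeric NR-Gal4 proteins; 24 h after dosing, reporter mRNA measured by RT-PCR, FAM labelling, HpaI digestion and capillary electrophoresis; gain of signal versus DMSO baseline.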

Experiment [5] relates to zebrafish Peroxisome Proliferator-activated Receptor gamma (PPARg), gene 557037. In words: ATG_zfPPARg_XSP2: Attagene TRANS-FACTORIAL Multi-Species (XSP2) HepG2 Assay for zebrafish Peroxisome Proliferator-activated Receptor gamma (PPARg) (AID 2283833).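 Also: actives increase reporter signal over DMSO so AC50 reflects activation.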 Put shortly:
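Cell-based transactivation of a chimeric zebrafish PPARg-GAL4 receptor was assessed in transiently transfected HepG2 cells after 24 h of treatment. Reporter mRNA induction, detected fluorescently after RT-PCR, was analysed in the positive direction against DMSO.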

The subject of experiment [6] is turtle Thyroid Hormone Receptor, alpha (TRa), gene 101949057. Briefly: ATG_trTRa_XSP2: Attagene TRANS-FACTORIAL Multi-Species (XSP1) HepG2 Assay for turtle Thyroid Hormone Receptor, alpha (TRa) (AID 2283834).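 Also: hits raise reporter mRNA over the DMSO baseline so AC50 marks activators.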 In a few lines:
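Gain-of-signal reporter transcription measured in transiently transfected HepG2 at 24 h post-dose. Fluorescent RT-PCR products were resolved by capillary electrophoresis and compared with DMSO vehicle.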

A short description of experiment [7]: ATG_M_61_XSP2: Attagene TRANS-FACTORIAL Multi-Species (XSP2) HepG2 Assay for M61 Transcription Factor (Internal Marker) (AID 2283835; active = hit-call score of the fitted dose curve at least 0.9, where 1 is the maximum; inactive = score below 0.9;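 also: active means a rise in signal above the DMSO baseline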). Put shortly: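 HepG2 cells transiently transfected with multiple GAL4-UAS reporter units; reporter mRNA measured 24 h after dosing by RT-PCR, fluorescent labelling and capillary electrophoresis. Medium contained 3 nM 6-alpha-fluorotestosterone and 1.5 nM norgestrel; internal marker, DMSO baseline.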

For experiment [8], the target named is human Thyroid hormone Receptor alpha (TRa), THRA (gene 7067) (UniProt P10827). In words: ATG_hTRa_XSP2: Attagene TRANS-FACTORIAL Multi-Species (XSP2) HepG2 Assay for human Thyroid hormone Receptor alpha (TRa) (AID 2283838). Put shortly:
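HepG2 cells transiently transfected with multiplexed GAL4-UAS reporter units and exogenous NR-GAL4 chimeras; 24 h chemical exposure with 3 nM 6-alpha-fluorotestosterone and 1.5 nM norgestrel present. Reporter mRNA measured by RT-PCR, FAM labelling, HpaI digestion, capillary electrophoresis; gain-of-signal versus DMSO.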

The target in experiment [9] is frog Thyroid hormone Receptor alpha (TRa), thra-a (gene 397942) (UniProt P15204). Briefly: ATG_frTRa_XSP2: Attagene TRANS-FACTORIAL Multi-Species (XSP2) HepG2 Assay for frog Thyroid hormone Receptor alpha (TRa) (AID 2283839). In a few lines:
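Frog thyroid receptor alpha was tested as an exogenous NR-Gal4 fusion in transiently transfected HepG2 cells. After 24 h chemical treatment, reporter mRNA induction was quantified by RT-PCR and capillary electrophoresis, with gain-of-signal analysed relative to DMSO.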

The target of experiment [10] is human Thyroid hormone Receptor beta (TRb), THRB (gene 7068) (UniProt P10828). Briefly: ATG_hTRb_XSP2: Attagene TRANS-FACTORIAL Multi-Species (XSP2) HepG2 Assay for human Thyroid hormone Receptor beta (TRb) (AID 2283840).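 Also: actives raise reporter mRNA so potency reflects agonist-like gain of signal.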 In a few lines:
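In this cell-based multiplex, HepG2 liver cells carrying transfected GAL4-UAS reporter constructs are exposed to chemical for 24 hours, then reporter transcripts are measured by RT-PCR with capillary electrophoresis, scored as gain of signal against DMSO.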

Where “and” joins values, the source holds several entries; their conditions need not be identical. Identical values can stand only once. The entries are a selection whose mix differs from that of the whole data set. Records with an inconclusive call do not appear. Calls of active or inactive are those of the source. The calls were made as follows, unless noted: active = hit-call score of the fitted dose curve at least 0.9, where 1 is the maximum; inconclusive = response in the unintended direction; inactive = score below 0.9.

Regarding `Cc1cc([N+](=O)[O-])cc([N+](=O)[O-])c1O`, the outcome in [1] and in experiment [2] was inactive.

On to `O=[P+](Oc1ccccc1)Oc1ccccc1`, for which the call in experiment [3], in [4], in experiment [5], in experiment [6], in [7] and in [8] was inactive. The call in experiment [9] and in experiment [10] was inactive.

The term AC50 denotes the midpoint of the concentration-response curve, whichever way the signal moves. In the case of `O=C1C2CC=CCC2C(=O)N1SC(Cl)(Cl)C(Cl)Cl` (configuration not stated), the concentration at half-maximal activity (AC50) in [1] was active: 44 µM.

Turning to `CC(C)OP(=S)(OC(C)C)SCCNS(=O)(=O)c1ccccc1`, the concentration at half-maximal activity (AC50) in [1] is active: 50 µM and active: 49.2 µM.
